Tested on: mice
Conditions: mouse, in vivo, iv

In the case of `CC[C@H]1CN2CCc3cc(OC)c(OC)cc3[C@@H]2C[C@@H]1C[C@@H]1c2cc(OC)c(OC)cc2CCN1C(=S)Nc1ccccc1` [compound 26], the “Effects/observations at higher doses” value was “No remarkable behavior, no sign of toxicity. Mice remained alive”.
